Laboratory results reported in BindingDB's records for patent US11026923 (H. Lundbeck, 2021).

The chains behind the UniProt entries cited, without tags or fusion partners.
UniProt Q14123, whole entry: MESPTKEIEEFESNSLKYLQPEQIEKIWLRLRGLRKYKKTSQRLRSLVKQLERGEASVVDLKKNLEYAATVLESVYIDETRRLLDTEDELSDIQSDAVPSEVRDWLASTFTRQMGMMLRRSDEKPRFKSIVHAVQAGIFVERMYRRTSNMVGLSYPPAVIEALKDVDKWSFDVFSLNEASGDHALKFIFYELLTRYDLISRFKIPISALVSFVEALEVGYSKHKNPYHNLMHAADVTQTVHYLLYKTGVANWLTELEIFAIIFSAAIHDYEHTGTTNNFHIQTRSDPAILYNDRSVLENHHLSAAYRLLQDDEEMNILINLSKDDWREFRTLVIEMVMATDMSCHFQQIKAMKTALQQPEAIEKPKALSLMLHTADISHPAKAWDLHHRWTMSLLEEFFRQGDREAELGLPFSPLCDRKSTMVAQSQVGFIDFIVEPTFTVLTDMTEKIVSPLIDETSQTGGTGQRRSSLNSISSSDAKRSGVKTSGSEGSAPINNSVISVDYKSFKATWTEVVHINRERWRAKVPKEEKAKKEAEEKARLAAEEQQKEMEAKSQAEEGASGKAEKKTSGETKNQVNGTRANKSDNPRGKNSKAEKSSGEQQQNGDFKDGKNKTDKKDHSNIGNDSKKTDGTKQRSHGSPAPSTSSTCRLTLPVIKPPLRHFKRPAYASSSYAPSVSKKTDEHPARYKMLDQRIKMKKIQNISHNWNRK

Target: Dual specificity calcium/calmodulin-dependent 3',5'-cyclic nucleotide phosphodiesterase 1C (Human, UniProt Q14123)
Assay: Inhibition Assay

CC1=NN(C(C)C)/C(=C(/C=C/c2ccsc2C)NCc2cnn(C)c2)C1 [US11026923, Example 65]
IC50: 16 nM
